Test results taken from patent US12503453B2, “USP7 inhibition” (Dana-Farber Cancer Institute, Inc., priority 2018, dated 2025).

Protein sequences, listed by entry. Tags and fused reporters are not part of them.
UniProt Q93009, whole entry: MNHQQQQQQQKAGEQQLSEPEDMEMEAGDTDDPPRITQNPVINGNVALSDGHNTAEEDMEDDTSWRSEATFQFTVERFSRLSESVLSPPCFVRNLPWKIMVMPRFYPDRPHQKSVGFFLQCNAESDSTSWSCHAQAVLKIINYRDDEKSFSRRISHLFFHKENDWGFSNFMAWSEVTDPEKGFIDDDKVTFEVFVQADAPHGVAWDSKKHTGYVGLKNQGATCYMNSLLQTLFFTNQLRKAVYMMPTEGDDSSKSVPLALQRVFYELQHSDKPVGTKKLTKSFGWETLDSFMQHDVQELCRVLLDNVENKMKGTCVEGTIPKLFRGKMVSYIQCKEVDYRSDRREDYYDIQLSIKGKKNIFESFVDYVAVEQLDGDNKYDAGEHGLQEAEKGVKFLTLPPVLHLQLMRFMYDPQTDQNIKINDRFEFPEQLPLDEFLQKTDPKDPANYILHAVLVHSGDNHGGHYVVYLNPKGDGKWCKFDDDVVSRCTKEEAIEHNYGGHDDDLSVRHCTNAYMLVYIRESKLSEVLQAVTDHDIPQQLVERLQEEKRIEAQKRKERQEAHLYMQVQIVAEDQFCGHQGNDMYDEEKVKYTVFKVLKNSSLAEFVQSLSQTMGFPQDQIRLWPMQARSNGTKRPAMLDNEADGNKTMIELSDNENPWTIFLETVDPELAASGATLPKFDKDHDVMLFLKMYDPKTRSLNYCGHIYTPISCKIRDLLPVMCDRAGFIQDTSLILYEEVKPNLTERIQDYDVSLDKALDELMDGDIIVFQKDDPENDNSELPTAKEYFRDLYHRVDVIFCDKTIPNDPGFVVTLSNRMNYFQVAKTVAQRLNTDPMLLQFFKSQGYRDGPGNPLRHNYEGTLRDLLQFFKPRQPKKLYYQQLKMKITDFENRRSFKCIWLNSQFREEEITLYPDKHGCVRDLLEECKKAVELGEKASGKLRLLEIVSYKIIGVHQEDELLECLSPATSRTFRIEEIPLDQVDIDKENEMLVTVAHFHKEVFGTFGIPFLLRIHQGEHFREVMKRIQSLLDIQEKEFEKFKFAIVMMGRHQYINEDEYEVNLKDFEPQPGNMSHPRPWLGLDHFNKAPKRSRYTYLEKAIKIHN

Molecular target: full length USP7 (Homo sapiens (Human), UniProt Q93009)
Experiment: Ub-AMC enzymatic assay with full-length USP7
Format: biochemical
Experimental: The constructs encoding USP7 full length (amino acids 1-1102) and catalytic domain (208-560) used were cloned as described (Lamberto, I. et al. Structure-Guided Development of a Potent and […] Selective Non-covalent Active-Site Inhibitor of USP7. Cell Chem. Biol. 24, 1490-1500 (2017)). Both constructs were overexpressed in E. coli BL21 (DE3). Cells were grown at 37° C. to an OD of 0.9, cooled to 16° C., induced with 500 μM isopropyl-1-thio-D-galactopyranoside (IPTG), incubated overnight at 16° C., collected by centrifugation, and stored at −80° C. Cell pellets were sonicated in lysis buffer (25 mM Tris pH 8, 1 M NaCl, and 10 mM BME) supplemented with 10 μg/ml phenylmethanesulfonylfluoride (PMSF) and the resulting lysate was centrifuged at 30,000×g for 40 min. Ni-NTA beads (Qiagen) were mixed with lysate supernatant for 2 hours, and washed with lysis buffer supplemented with 25 mM imidazole. […]
Full length USP7 was tested for its activity in Ubiquitin-AMC assay in presence or absence of inhibitors. […] The initial rate of the reaction was measured by collecting fluorescence data at one minute intervals over 30-minute period using a Clariostar fluorescence plate reader at excitation and emission wavelength of 345 and 445 nm respectively. The calculated initial rate values were plotted against inhibitor concentrations to determine IC50s. […]

Question: How did the “IC50 against USP7 (range in words)” value turn out when HBX-19818 [reference compound] was run?
Answer: micromolar
